Patent US12195427B2

Protein sequences, listed by entry. Tags and fused reporters are not part of them. Residues count along the entry.
UniProt O00187, 445-686 limits assumed: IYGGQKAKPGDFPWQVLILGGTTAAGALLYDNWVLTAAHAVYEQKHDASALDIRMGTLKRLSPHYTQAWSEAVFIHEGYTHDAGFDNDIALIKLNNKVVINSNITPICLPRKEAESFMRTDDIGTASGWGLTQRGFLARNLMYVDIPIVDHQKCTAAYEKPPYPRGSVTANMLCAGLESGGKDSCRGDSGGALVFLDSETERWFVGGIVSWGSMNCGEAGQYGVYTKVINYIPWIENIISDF

Target: MASP-2 (CCP1-CCP2-SP) (Homo sapiens (Human), UniProt O00187)
Experiment: Enzymatic Assay for MASP-2
Assay type: biochemical

Structure (SMILES)	MASP-2 vs. thrombin selectivity
C[C@H](NC(=O)[C@@H](CCc1ccccc1)NCc1cc2ccccc2[nH]1)C(=O)NCc1ccc(C(=N)N)cc1	−− (less than 1.0-fold)
C[C@H](NC(=O)[C@@H](CCc1ccccc1)NCc1ccc(F)cc1)C(=O)NCc1ccc(C(=N)N)cc1	−− (less than 1.0-fold)
